Assay results as given in article PMC4977286 (Frontiers in Pharmacology, 2016).

Amino acid sequences for entries named in this document (tags omitted).
UniProt P08183, whole entry: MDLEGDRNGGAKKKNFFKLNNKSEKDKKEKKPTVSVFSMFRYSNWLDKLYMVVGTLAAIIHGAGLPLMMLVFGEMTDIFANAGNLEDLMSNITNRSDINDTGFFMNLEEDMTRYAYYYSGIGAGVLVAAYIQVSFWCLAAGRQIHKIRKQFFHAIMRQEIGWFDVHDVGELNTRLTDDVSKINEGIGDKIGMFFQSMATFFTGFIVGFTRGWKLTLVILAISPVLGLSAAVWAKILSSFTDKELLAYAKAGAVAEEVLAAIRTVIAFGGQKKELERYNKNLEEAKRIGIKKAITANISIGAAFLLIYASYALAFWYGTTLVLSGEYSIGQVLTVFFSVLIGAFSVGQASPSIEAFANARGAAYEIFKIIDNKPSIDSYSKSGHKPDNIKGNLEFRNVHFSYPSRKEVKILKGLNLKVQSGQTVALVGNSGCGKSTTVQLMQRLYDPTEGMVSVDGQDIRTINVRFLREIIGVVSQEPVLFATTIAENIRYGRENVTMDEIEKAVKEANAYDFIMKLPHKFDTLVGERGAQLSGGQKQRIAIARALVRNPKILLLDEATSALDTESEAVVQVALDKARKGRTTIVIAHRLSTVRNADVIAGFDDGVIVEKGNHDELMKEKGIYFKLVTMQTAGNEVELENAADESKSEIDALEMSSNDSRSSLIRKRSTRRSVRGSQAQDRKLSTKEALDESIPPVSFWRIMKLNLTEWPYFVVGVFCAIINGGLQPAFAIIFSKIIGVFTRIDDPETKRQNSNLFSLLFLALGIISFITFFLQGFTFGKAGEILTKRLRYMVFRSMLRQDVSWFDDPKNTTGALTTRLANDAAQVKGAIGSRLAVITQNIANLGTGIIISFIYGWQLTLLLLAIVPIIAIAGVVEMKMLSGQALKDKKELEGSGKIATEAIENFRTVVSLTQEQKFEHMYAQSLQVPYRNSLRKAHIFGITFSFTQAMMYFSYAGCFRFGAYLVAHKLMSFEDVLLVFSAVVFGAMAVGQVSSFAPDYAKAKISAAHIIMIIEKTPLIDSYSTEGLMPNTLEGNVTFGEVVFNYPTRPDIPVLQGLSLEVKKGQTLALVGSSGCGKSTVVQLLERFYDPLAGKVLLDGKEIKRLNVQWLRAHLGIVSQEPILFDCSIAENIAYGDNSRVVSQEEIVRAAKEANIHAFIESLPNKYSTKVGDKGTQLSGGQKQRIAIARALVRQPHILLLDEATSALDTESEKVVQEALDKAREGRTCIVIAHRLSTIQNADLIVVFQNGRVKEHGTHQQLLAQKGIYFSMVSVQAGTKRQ
UniProt Q92887, whole entry: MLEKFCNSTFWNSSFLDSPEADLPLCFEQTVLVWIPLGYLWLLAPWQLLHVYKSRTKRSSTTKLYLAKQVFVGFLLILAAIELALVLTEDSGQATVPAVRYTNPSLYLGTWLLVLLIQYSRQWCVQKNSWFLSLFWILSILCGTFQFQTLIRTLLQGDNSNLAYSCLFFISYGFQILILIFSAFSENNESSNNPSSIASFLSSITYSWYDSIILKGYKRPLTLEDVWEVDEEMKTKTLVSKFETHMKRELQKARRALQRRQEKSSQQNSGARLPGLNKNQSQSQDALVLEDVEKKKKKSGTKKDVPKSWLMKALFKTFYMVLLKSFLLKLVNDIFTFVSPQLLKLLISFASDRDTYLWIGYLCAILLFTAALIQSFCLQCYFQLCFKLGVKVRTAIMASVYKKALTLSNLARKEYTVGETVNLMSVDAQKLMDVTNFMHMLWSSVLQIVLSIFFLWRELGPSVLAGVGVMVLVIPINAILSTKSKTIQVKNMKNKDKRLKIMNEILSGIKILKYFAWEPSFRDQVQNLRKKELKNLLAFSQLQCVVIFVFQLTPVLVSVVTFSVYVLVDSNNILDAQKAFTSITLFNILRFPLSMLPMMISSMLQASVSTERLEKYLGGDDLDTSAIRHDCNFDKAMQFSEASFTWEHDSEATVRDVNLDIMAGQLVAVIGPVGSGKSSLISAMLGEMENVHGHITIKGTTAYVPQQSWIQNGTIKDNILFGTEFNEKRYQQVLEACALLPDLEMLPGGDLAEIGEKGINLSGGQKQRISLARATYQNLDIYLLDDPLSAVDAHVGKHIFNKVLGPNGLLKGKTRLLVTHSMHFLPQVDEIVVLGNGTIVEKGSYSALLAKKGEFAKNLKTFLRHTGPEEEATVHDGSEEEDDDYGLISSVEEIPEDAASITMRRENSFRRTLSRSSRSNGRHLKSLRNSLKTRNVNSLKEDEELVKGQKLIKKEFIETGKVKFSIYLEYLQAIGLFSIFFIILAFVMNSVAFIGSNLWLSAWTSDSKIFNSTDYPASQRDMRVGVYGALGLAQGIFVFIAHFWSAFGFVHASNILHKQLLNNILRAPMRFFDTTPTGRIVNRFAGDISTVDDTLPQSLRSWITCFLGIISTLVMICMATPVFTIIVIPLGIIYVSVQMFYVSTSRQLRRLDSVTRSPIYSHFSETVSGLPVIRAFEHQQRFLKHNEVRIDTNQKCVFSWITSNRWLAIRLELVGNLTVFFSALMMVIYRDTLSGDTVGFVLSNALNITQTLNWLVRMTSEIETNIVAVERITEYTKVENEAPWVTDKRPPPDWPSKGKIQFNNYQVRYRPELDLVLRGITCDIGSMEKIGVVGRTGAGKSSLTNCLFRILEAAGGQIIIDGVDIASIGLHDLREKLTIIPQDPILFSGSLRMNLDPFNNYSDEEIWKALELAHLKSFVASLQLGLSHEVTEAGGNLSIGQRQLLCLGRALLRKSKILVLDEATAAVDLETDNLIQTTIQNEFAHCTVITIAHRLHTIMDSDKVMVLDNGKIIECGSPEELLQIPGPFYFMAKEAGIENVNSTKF
UniProt Q9UNQ0, whole entry: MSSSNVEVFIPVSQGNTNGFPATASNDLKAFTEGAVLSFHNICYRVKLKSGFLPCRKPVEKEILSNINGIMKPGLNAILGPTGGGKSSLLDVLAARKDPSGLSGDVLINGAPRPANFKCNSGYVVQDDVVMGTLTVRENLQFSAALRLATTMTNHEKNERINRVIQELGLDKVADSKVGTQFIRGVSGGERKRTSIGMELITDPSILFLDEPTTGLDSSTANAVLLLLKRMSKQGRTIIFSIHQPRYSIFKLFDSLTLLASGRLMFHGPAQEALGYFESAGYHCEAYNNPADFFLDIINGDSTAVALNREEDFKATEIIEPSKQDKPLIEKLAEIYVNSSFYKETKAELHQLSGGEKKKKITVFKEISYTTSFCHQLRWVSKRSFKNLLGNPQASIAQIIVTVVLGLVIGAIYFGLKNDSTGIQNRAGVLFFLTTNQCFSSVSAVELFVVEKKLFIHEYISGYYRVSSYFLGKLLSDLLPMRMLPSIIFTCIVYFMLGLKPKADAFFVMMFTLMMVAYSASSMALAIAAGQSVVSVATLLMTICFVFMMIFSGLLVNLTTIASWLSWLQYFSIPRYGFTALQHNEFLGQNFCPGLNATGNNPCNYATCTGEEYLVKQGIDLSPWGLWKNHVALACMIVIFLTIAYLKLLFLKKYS

What was measured:
[1] = tested on: sandwich-cultured rat hepatocytes (SCRH)
[2] = Biliary excretion in bile-duct cannulated (BDC) rats; format: in vivo, rat; details: TNP 12 mg/kg intragastric
P-gp [3] = target: P-gp (Homo sapiens, UniProt P08183); assay: Uptake in HepG2 cells transfected with mdr1a siRNA; details: 20 μM substrate
MRP2 [4] = target: T1, MRP2 (Homo sapiens, UniProt Q92887); assay: Uptake in HepG2 cells transfected with MRP2 siRNA; details: 20 μM substrate
MDR1 = MDR1 (Homo sapiens, UniProt P08183); assay: ATPase screening assay, MDR1 membrane; details: conclusion from ATPase assay
BCRP = BCRP (Homo sapiens, UniProt Q9UNQ0); assay: ATPase screening assay, BCRP membrane; details: TNP, TNP-G, sulfasalazine 1 mM, 37°C 30 min, blank 6.4 ± 1.7
Caco-2 monolayer = details: cyclosporine A and MK571 increased the apparent permeability of TNP; ref Li et al., 2010; cited from earlier work
[5] = rats, within 24 h; ref Kong et al., 2007; cited from earlier work
[6] = Pharmacokinetics in mice treated with siRNA; details: for AUC(0-t) / Cmax / MRT / t1/2: plasma, TNP 12 mg/kg intragastric
P-gp [7] = assay: Bile clearance of TNP in SCRH with P-gp inhibitors or inducer
[8] = Pharmacokinetic study in intact rats pretreated with tariquidar or probenecid; format: in vivo, rat; details: for AUC(0-t) / Cmax / MRT / T1/2: plasma, TNP 12 mg/kg intragastric
[9] = ref previous study; cited from earlier work
MRP2 [10] = target: T1, MRP2; assay: ATPase screening assay, MRP2 membrane; format: biochemical; details: TNP, TNP-G 30 mM, probenecid 100 mM, 37°C 40 min, blank 1.2 ± 0.5
[11] = ref Kong et al., 2007; Deng et al., 2012; cited from earlier work
[12] = TNP + probenecid 200 mg/kg i.v.

COC12CCC3(CC1C(C)(O)CCc1cccs1)C1Cc4ccc(O)c5c4C3(CCN1CC1CC1)C2O5 (stereo not drawn)
CLbile,pred (plasma total concentration) relative to measured CLbile,obs ([1]; SCRH prediction vs rats): ~ 2 fold | average BEI (biliary excretion index) ([1]; SCRH, 20 μM, 60 min incubation): 14.5 ± 0.9 | CLbile, int From Eq. 2 ([1]; SCRH, in vitro intrinsic biliary clearance scaled to body weight): 5.8 ± 0.5 mL/min/kg | CLbile,pred From Eq. 3 ([1]; predicted in vivo from SCRH CLbile,int, total concentration (fu,p = 1), Qp 40 ml/min/kg): 5.0 ± 0.4 mL/min/kg | CLbile,pred From Eq. 4 ([1]; predicted in vivo from SCRH CLbile,int, with plasma unbound fraction): 0.3 ± 0.02 mL/min/kg | recovery in bile, % of the TNP dose ([2]; BDC rats, control group, 24 h): less than 1% | CLbile,obs From Eq.5 ([2]; rats, bile amount 0–24 h / AUC0–24h): 2.4 ± 0.1 mL/min/kg | intracellular concentration, increase compared with the NC-siRNA group (P-gp [3]): 1.9 fold | intracellular concentration, increase compared with the NC-siRNA group (MRP2 [4]): not impacted | Transporter substrate finding, MDR1 (MDR1): substrate of MDR1 | Vanadate-sensitive ATPase activities, BCRP (BCRP): 5.9 ± 0.8 nmol/min/mg | Transporter substrate finding, Caco-2 monolayer transport (Caco-2 monolayer): substrate of P-gp and MRP2 | oral dose excreted from bile [5]: 24% | increase in AUC compared to the control group ([6]; mdr1a siRNA): 3.4 fold | increase in Cmax compared to the control group ([6]; mdr1a siRNA): 5.6 fold | AUC(0-t) ([6]; TNP + NC-siRNA): 209.64 ± 40.5 ng·h/mL | Cmax ([6]; TNP + NC-siRNA): 38.0 ± 12.6 ng/mL | MRT ([6]; TNP + NC-siRNA): 4.57 ± 0.46 h | t1/2 ([6]; TNP + NC-siRNA): 5.1 ± 1.1 h | AUC(0-t) ([6]; TNP + mdr1a siRNA): 708.6 ± 103.8 ng·h/mL | Cmax ([6]; TNP + mdr1a siRNA): 211.9 ± 61.3 ng/mL | MRT ([6]; TNP + mdr1a siRNA): 3.29 ± 0.28 h | t1/2 ([6]; TNP + mdr1a siRNA): 5.1 ± 2.1 h | CLbile,int of TNP (P-gp [7]; quercetin 0 μM (control)): 11.7 ± 1.0 mL/min/kg | CLbile,int of TNP (P-gp [7]; tariquidar 0 μM (control)): 16.5 ± 1.0 mL/min/kg | AUC(0-t) [8, 12]: 39.5 ± 16.8 ng·h/mL | Cmax [8, 12]: 24.2 ± 3.8 ng/mL | MRT [8, 12]: 7.4 ± 3.9 h | T1/2 [8, 12]: 5.6 ± 2.6 h | AUC(0-t) ([8]; TNP + saline): 38.9 ± 23.8 ng·h/mL | Cmax ([8]; TNP + saline): 16.2 ± 7.8 ng/mL | MRT ([8]; TNP + saline): 12.2 ± 2.2 h | T1/2 ([8]; TNP + saline): 7.8 ± 1.4 h | AUC(0-t) ([8]; TNP + tariquidar 10 mg/kg i.v.): 119.0 ± 68.6 ng·h/mL | Cmax ([8]; TNP + tariquidar 10 mg/kg i.v.): 47.3 ± 8.1 ng/mL | MRT ([8]; TNP + tariquidar 10 mg/kg i.v.): 6.4 ± 3.3 h | T1/2 ([8]; TNP + tariquidar 10 mg/kg i.v.): 3.4 ± 1.7 h | increase in the AUC compared with the control group ([8]; tariquidar treated group): 3.1 fold | increase in the Cmax compared with the control group ([8]; tariquidar treated group): 2.9 fold | fu,p (plasma unbound fraction) [9]: 0.05 | Vanadate-sensitive ATPase activities, MRP2 (MRP2 [10]): 0.8 ± 0.2 nmol/min/mg | duration of excretion [11]: ~ 2 weeks
